Bioassay records (PubChem)
Sampled rows, rich in hits. Any-hit rate of the full collection: about 1.9%.
FGF22 binding: shifts melting point of recombinant human FGF22. activity (Tm shift, normalised), % at 9.99 µM. recombinant FGF22 thermal shift, SYPRO orange fluorescence; percent of sucrose octasulfate shift, DMSO zero. AID 651658. hit rate 1.5% among 340,000. Q9HCT0;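 active = mean Tm shift, scaled 0 neutral to 100 positive control, at about 1.3% or above, every replicate too, limit read from the data; inconclusive = no clear call, values can overlap the other calls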
Yeast UUG start: modulators of yeast start codon fidelity, primary screen, whole organism, S. cerevisiae, single point, plate reader; S. cerevisiae UUG-firefly luciferase reporter, luminescence/redox ratio; activity score, % at 18.7 µM; 0.13% of 350,000 active; AID 602363, 2012;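 active = replicate mean at a twofold rise or more, about +100% in these data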;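 also: firefly luciferase made from a UUG start codon reports start codon fidelity; reporter light over untreated wells divided by growth signal over untreated wells; some hits fall short of that in this replicate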
PglD DTNB: PglD (C. jejuni) enzyme inhibition; purified PglD enzyme, DTNB colorimetric CoA detection; inhibition, % at 12.5 µM; hit rate 0.098% among 360,000; in the data active = inhibition above about 16%, passing the limit was not always enough; inconclusive = no clear call, values can overlap the other calls
ERp5 inh: blocks human ERp5 reductase activity on insulin; Q15084; ERp5 insulin aggregation, absorbance 650 nm, 90 min; inhibition, % at 9.99 µM; hit rate 0.05% among 350,000; AID 651711;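 active = mean replicate inhibition above about 25%, with every replicate also reaching it, limit read from the data, passing the limit was not always enough; inconclusive = only one of those two criteria met; inactive = neither criterion met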
PDI turbidity: blocks human protein disulfide isomerase activity; inhibition, % at 10 µM; AID 588391; PDI insulin aggregation turbidity, A650, 90 min; hit rate 0.052% among 350,000;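 active = mean inhibition across replicates of 30% or more, whatever share of single replicates reach that level; inconclusive = mean inhibition below 30% while every single replicate reaches 30%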
ARNT-TACC3 inh: disruptors of human ARNT/TACC3 interaction. hit rate 0.66% among 390,000. AlphaScreen His-ARNT PAS-B/GST-TACC3 binding, luminescence; TACC3 fragment carries E629A point mutation. inhibition, % at 9.99 µM. AID 623870. Q9Y6A5;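 active = mean inhibition of replicates at least 50% and at least half of replicates each reaching 50%; inconclusive = half or more replicates reach 50% but mean below 50%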;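 note: 0% = complete ARNT plus TACC3 wells and 100% = ARNT alone without TACC3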
* = called active by the depositor; ? = inconclusive; · = no result.

Under each structure – FGF22 binding, Yeast UUG start, PglD DTNB, ERp5 inh, PDI turbidity, ARNT-TACC3 inh
- Cc1cccc(CSc2nn3c(=O)c(C)nnc3s2)c1
→ ·, -22.3, 1.9, ·, -3.8, ·
- Cn1nnnc1SCC(=O)Nc1cccc([N+](=O)[O-])c1
→ 42.9, ·, ·, 0.2, 4.6, -2.0
- COc1ccc(CCNC(=O)CSCC(=O)Nc2ccccc2)cc1OC
→ -0.1, -12.3, -0.3, 1.6, -3.0, -3.8
- CS(=O)(=O)Nc1nnc(SCC(=O)Nc2cccc([N+](=O)[O-])c2)s1
→ 43.4*, ·, ·, 3.5, -1.1, ·
- CC(=O)Nc1cccc(NC(=O)CSc2nn3c(=O)c(C)nnc3s2)c1
→ -0.2, 0.1, 1.2, 1.5, 8.8, 66.8*
- Cc1nnc2sc(SCC(=O)Nc3ccc(Cl)cc3)nn2c1=O
→ -0.1, 0.9, 1.0, -9.0, 3.0, 42.6*
- CN1CCN(C(=O)[C@H]2[C@H](CO)[C@H]3Cn4c(cccc4=O)[C@H]3N2Cc2ccccc2F)CC1
→ 0.0, ·, 5.8, -0.8, ·, -5.8
- CC(C)C(=O)Nc1nnc(SCC(=O)Nc2ccc3c(c2)OCO3)s1
→ ·, -6.5, 0.5, ·, -5.2, -10.7
- COc1ccc(NC(=O)CSc2nnc(NC(=O)c3ccccc3C(=O)O)s2)cc1
→ 43.5*, 1.9, -7.3, 0.6, 0.4, -0.5
- CC(C)C(=O)Nc1nnc(SCC(=O)Nc2ccc3c(c2)OCCO3)s1
→ 1.4*, 3.4, 2.9, -0.9, 3.3, -4.0
- CC(=O)Nc1cccc(NC(=O)CSc2nnc(NC(=O)c3ccco3)s2)c1
→ 1.5*, 3.3, -1.4, -0.7, -7.3, -5.6
- Cc1ccc(S(=O)(=O)NCC[C@@H]2CC[C@H](NC(=O)NC(C)C)[C@H](CO)O2)cc1
→ -0.2, -18.7, 0.5, -6.8, ·, ·
- O=C(O)CN1C(=O)/C(=C\c2ccc(OC(=O)c3ccco3)cc2)SC1=S
→ -0.1, -26.1, -4.0, 5.5, 43.1*, 8.9
- C[C@@H]1CN([C@H](C)CO)C(=O)Cc2cc(NS(=O)(=O)c3ccc(F)cc3)ccc2O[C@@H]1CN(C)S(=O)(=O)c1cccs1
→ 0.2, 4.9, 2.4, 0.1, ·, 0.1
- COc1ccc(NC(=O)Nc2ccc3c(c2)CC(=O)N([C@@H](C)CO)C[C@@H](C)[C@@H](CN(C)S(=O)(=O)c2cccs2)O3)cc1
→ -0.1, 4.0, 0.5, 8.5, ·, ·
- CCn1c(C)[n+](Cc2ccccc2)c2ccc(C(=O)OC)cc21
→ 43.1*, ·, ·, -1.5, -6.4, -19.2
- CCn1c(C)[n+](Cc2ccccc2)c2ccc(Cl)cc21
→ 0.0, ·, ·, 0.9, -6.5, 0.9
- O=c1c2cc(Cl)ccc2nc(-c2ccccc2)n1O
→ 46.0*, ·, ·, 1.4, 18.4, -6.4
- COc1ccc(NC(=O)c2ccc(Oc3ncccn3)cc2)cc1
→ 43.8*, -12.4, -2.6, -3.2, 7.7, -5.6
- COc1ccc(NC(=O)c2ccc(NC(=O)c3ccncc3)cc2)cc1
→ 0.6, 0.2, 8.5, 3.9, 0.9, -0.8
- CCOC(=O)CSc1ccc(C(=O)Nc2ccc(Cl)cc2)cn1
→ 0.2, ·, ·, 0.1, -15.3, -7.7
- CCOC(=O)CSc1ccc(C(=O)Nc2ccc(OC)cc2)cn1
→ 43.2*, ·, ·, 2.7, 6.1, -1.5
- CCNC(=O)[C@H]1[C@H](CO)[C@H]2Cn3c(ccc(-c4cccnc4)c3=O)[C@@H]1N2Cc1ccccc1
→ -0.1, ·, 0.0, -2.2, ·, -8.0
- Cc1noc(C)c1NC(=O)N(C)C[C@H]1Oc2ccc(NC(=O)c3ccncc3)cc2CC(=O)N([C@@H](C)CO)C[C@@H]1C
→ -0.1, -4.9, 3.2, 0.5, ·, -4.3
- C[C@@H]1CN([C@@H](C)CO)C(=O)Cc2cc(N(C)C)ccc2O[C@H]1CN(C)S(=O)(=O)c1ccc(Cl)cc1
→ -0.8, 16.9, 2.3, 5.1, ·, 12.0
- COCC(=O)N1C[C@H](C)[C@@H](OC)CN(C)C(=O)c2cc(NC(=O)Nc3ccccc3)ccc2OC[C@@H]1C
→ 0.1, 3.9, -0.4, 0.5, ·, -5.3
- CCc1nc2sccc2c(=O)n1N
→ 43.0*, ·, ·, 3.8, -3.8, 13.0
- COc1ccc(NC(=O)CN(C)CC(=O)Nc2ccc(Cl)c(S(=O)(=O)N(C)C)c2)cc1
→ 43.1*, -12.4, -0.6, 0.6, 11.0, 3.6
- O=S(=O)(Nc1cccc(S(=O)(=O)N2CCCCC2)c1)c1ccccc1F
→ 43.5*, -8.9, 0.0, 2.1, 6.8, -11.7
- O=S(=O)(Nc1cccc(S(=O)(=O)N2CCCC2)c1)c1cccs1
→ 43.2*, ·, ·, 0.0, -4.5, -4.5

Complete entries as entered above.
`O=c1c2cc(Cl)ccc2nc(-c2ccccc2)n1O` is entered as FGF22 binding: 46.0*; Yeast UUG start: ·; PglD DTNB: ·; ERp5 inh: 1.4; PDI turbidity: 18.4; ARNT-TACC3 inh: -6.4
`CCOC(=O)CSc1ccc(C(=O)Nc2ccc(OC)cc2)cn1` is entered as FGF22 binding: 43.2*; Yeast UUG start: ·; PglD DTNB: ·; ERp5 inh: 2.7; PDI turbidity: 6.1; ARNT-TACC3 inh: -1.5

(cont.)
Under each structure – FGF22 binding, Yeast UUG start, PglD DTNB, ERp5 inh, PDI turbidity, ARNT-TACC3 inh
- O=S(=O)(Nc1cccc(S(=O)(=O)N2CCCC2)c1)c1ccccc1F
→ 0.0, 8.1, -5.6, 0.0, -6.3, -16.9
- O=C(CCCN1C(=O)/C(=C/c2cccs2)SC1=S)Nc1cccnc1
→ 43.6*, ·, ·, 3.6, -5.6, ·
- Cc1ccc(N=Nc2c(O)[nH]c3ccc(F)cc23)cc1
→ -0.1, 9.9, 0.2, 5.8, -1.8, 15.7
- O=c1[nH]nc(N=Nc2c(O)[nH]c3ccc(F)cc23)c(=O)[nH]1
→ 0.1, -1.1, -6.1, 1.1, 1.0, 63.5*
- CCOC(=O)C1(CCOc2ccccc2)CCN(CCCn2cccn2)CC1
→ 42.9*, ·, ·, 3.2, -7.0, 6.6
- CCOC(=O)C1(Cc2cccc(OC)c2)CCN(Cc2ccccc2OC)CC1
→ 43.2*, 2.0, -1.3, -0.8, -11.3, -3.8
- CCOC(=O)C1(Cc2ccccc2)CCN(Cc2csc(C(C)=O)c2)CC1
→ 43.8*, 2.5, 4.8, -2.1, 3.0, 11.8
- CCOC(=O)C1(Cc2cccc(OC)c2)CCN(Cc2cccc(OC)c2O)CC1
→ -0.6, ·, ·, ?, -2.1, 9.5
- CCOC(=O)C1(Cc2ccccc2)CCN(Cc2cccc3nccnc23)CC1
→ 43.8*, -21.9, -5.6, -1.9, -10.0, ·
- C[C@@H]1CN([C@@H](C)CO)C(=O)Cc2cc(NC(=O)NC3CCCCC3)ccc2O[C@@H]1CN(C)Cc1ccc(C(=O)O)cc1
→ 0.0, 2.2, -3.3, -0.2, ·, 0.7
- COc1ccc2c3c(n(C)c2c1)[C@@H](CO)N(CC1CCOCC1)CC31CCN(C(C)=O)CC1
→ 0.0, ·, ·, 7.3, ·, ·
- O=C(NCC[C@H]1CC[C@@H](NC(=O)C2CC2)[C@H](CO)O1)c1cnccn1
→ 0.6, -11.5, 0.4, -2.1, ·, -4.0
- CNC(=S)N1N=C(c2ccc(C)cc2)CC1c1ccc(OC)cc1 (stereo not given)
→ ·, -14.4, -0.8, ·, 7.2, 4.3
- CNC(=S)N1N=C(c2ccc(C)cc2)CC1c1ccc(N(C)C)cc1 (stereo not given)
→ 43.6*, -18.4, 3.9, 3.9, -9.4, -0.8
- Cc1ccc(S(=O)(=O)N[C@H]2CC[C@H](CCn3cc(C4CCCCC4)nn3)O[C@H]2CO)cc1
→ 0.3, -12.0, -0.4, 11.0, ·, -16.7
- CCNC(=O)C[C@@H]1CC[C@@H]2[C@H](COc3ccc(NC(=O)Nc4c(C)noc4C)cc3C(=O)N2C)O1
→ -0.3, 9.1, 3.1, -1.7, ·, 16.5
- CN(/C=C/c1c([N+](=O)[O-])c(=O)n(C)c(=O)n1C)c1ccccc1
→ 0.2, -13.6, 1.4, 0.6, 4.8, active
- O=C(NC1CCCCC1)N[C@@H]1CC[C@@H](CCNS(=O)(=O)c2ccccc2)O[C@H]1CO
→ -0.3, 8.3, 4.4, -1.1, ·, 1.3
- Cc1ccc(C(=O)N/C(=C\c2ccc(-c3ccccc3[N+](=O)[O-])o2)C(=O)NCCCN(C)C)cc1
→ -0.2, ·, ·, -0.8, -0.6, ·

Shown with each value named: two of the compounds above
Cc1cccc(CSc2nn3c(=O)c(C)nnc3s2)c1
  FGF22 binding: ·	Yeast UUG start: -22.3	PglD DTNB: 1.9	ERp5 inh: ·	PDI turbidity: -3.8	ARNT-TACC3 inh: ·

Cn1nnnc1SCC(=O)Nc1cccc([N+](=O)[O-])c1
  FGF22 binding: 42.9	Yeast UUG start: ·	PglD DTNB: ·	ERp5 inh: 0.2	PDI turbidity: 4.6	ARNT-TACC3 inh: -2.0
